Tests used:
human Aurora-A = target: T1, human Aurora-A (Homo sapiens, UniProt O14965); experiment: in vitro kinase assay, phosphorylation of histone H3 (autoradiography); assay type: biochemical; settings: AuroraΔN (residues 122-403), FIG. 2C
T1 construct: were incubated with full length Aurora-A or AuroraΔN in kinase buffer; made in house; host or cells: bacteria (printed only for the full-length protein used as immunogen)
T1 sequence (O14965 122-403): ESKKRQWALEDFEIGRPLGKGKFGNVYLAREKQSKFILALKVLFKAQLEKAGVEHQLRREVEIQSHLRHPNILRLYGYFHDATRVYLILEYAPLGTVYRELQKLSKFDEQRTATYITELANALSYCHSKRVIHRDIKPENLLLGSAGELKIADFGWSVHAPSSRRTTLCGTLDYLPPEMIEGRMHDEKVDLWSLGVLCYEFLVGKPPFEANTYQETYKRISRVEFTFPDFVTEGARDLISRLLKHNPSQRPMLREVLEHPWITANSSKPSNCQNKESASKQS

Aurora A [1] = target: T2, Aurora A (Homo sapiens, UniProt O14965); experiment: phosphatase assay, PP1 treatment of Aurora-A, Western blot; assay type: biochemical; settings: TPX2 protein 3 μM, Aurora-A 2 μM, PP1 0.5 h at 30° C., FIG. 1E
T2 sequence (O14965 1-403): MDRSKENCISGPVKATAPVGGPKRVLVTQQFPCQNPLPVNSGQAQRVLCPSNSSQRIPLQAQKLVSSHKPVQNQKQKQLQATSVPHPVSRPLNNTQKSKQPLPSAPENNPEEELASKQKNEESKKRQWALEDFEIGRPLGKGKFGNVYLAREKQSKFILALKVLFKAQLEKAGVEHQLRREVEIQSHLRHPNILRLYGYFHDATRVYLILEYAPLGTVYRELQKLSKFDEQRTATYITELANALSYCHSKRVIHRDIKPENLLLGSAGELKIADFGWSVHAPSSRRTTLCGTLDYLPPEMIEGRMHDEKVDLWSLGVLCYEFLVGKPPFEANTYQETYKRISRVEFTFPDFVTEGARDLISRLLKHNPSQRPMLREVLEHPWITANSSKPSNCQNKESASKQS
Method: Active human Aurora-A (2 μM) was incubated with TPX2, TPX2(1-43) or TPX2(15-43) (3 μM) for 10 min at 4° C. Samples were diluted in phosphatase buffer (50 mM Tris-HCl pH 7, 0.1 mM EDTA, 1 mM MnCl2, 5 mM caffeine, 5 mM DTT, 0.025% Tween 20) and incubated in the absence or presence of PP1 (α isoform, NEB) for 0.5 h at 30° C. Afterwards proteins were separated by SDS-PAGE and analyzed by Western blotting with anti-Aurora-A or anti-phospho-Aurora-A (Cell Signalling, 1:10000 dilution).

Aurora A [2] = target: T2, Aurora A; experiment: immunoprecipitation from mitotic HeLa cell extract; assay type: binding; settings: GST fusion proteins 1 μM, FIG. 1B
Method: HeLa cells (CCL2; ATCC, Manassas, Va.) were grown in 10% fetal calf serum (FCS) and 2 mM L-glutamine in modified Eagle's medium at 37° C. and 5% CO2. Cells were arrested in S phase using a double thymidine (2 mM) block as described (Stein, 1994) and released from S phase by washing away the thymidine. After 10 h, cells were trypsinized, incubated for 10 min in ice-cold lysis buffer (25 mM Tris pH 7.6, 200 mM NaCl, 1% Triton, protease inhibitors), and centrifuged for 10 min at 15,000 g. Xenopus cytostatic factor arrested extracts (CSF extracts) were prepared as described (Murray, 1991).
For coating beads with anti-GST, 6 μg of antibody were incubated with 20 μl of protein A-conjugated Dynabeads 280 (Dynal) in a total volume of 100 μl PBS-T (PBS, 0.1% Triton X-100), for at least 1 h at 4° C. The beads were washed twice with PBS-T and twice with HeLa cells lysis buffer or CSF-XB (10 mM Hepes pH 7.7, 50 mM sucrose, 100 mM KCl, 2 mM MgCl2, 0.1 mM CaCl2 and 5 mM EGTA). […] The samples were then subjected to gel electrophoresis and analyzed by Western blotting with anti-GST, anti-Xenopus TPX2, anti-Xenopus Aurora-A or anti-human Aurora-A.

Aurora A [3] = target: T2, Aurora A; experiment: in vitro kinase assay, phosphorylation of histone H3 (autoradiography); assay type: biochemical; set-up: were incubated with full length Aurora-A or AuroraΔN in kinase buffer; made in house; host or cells: bacteria (printed only for the full-length protein used as immunogen); settings: full length Aurora-A, TPX2 protein at 4 μM, FIG. 1C

TPX2(1-43): minimal activating domain of TPX2, amino acid residues 1-43 of human TPX2
activation of AuroraΔN (human Aurora-A): activated
protection of Aurora-A from dephosphorylation by PP1 (Aurora A [1]): An even stronger protection effect
interaction with Aurora-A in HeLa extract (Aurora A [2]): able to interact with Aurora-A
stimulation of histone H3 phosphorylation by Aurora-A (Aurora A [3]): markedly increased

Source: patent US20080051327A1, “Crystals of an Aurora-A Tpx2 Complex, Tpx2 Binding Site of Aurora-A, Aurora-A Ligands and Their Use” (EMBL, priority 2003, published 2008)
